Results published in patent US20080009551A1, “Methods and Compositions for Identifying Modulators of G Protein-Coupled Receptors” (Arena Pharmaceuticals, Inc., priority 2003, published 2008).

System: niacin receptor
Assay: Upregulation of GURC-modified niacin receptor (luciferase assay)
Format: cell-based
Settings: FIG. 15A

For `O=C(O)c1cccnc1` [nicotinic acid], the “upregulation of the niacin receptor” value was “dose-dependent upregulation”.
